The values below come from PubChem BioAssay AID435022 (Sanford-Burnham Center for Chemical Genomics, 2010).

SMILES strings stand for the structures. Only a part is listed here, and it is no random draw. Active and inactive are the calls of the source. Rule as the data show it: active = inhibition above about 35%; inactive = the rest.

This test in a line: lowers stimulated NF-kB luciferase signal in 697 B cells – cell-based, luminescence, uHTS, B-cell NF-kB inhibitor project, primary screen (AID 435022). The settings on record: 697 B-cell NF-kB luciferase reporter, PMA/ionomycin, 16 h; at 4 µM; hits give high values.
Regarding `Cc1ccc(OP(=O)(Nc2nccs2)Oc2ccc(C)cc2)cc1`, the inhibition was inactive: -8.5%.

Regarding `CN1CCCC(OC(=O)C(c2ccccc2)c2ccccc2)C1` (stereo unspecified), the inhibition was inactive: 1.47%.

For `Clc1ccc(Cl)c(NC2=NCC(CBr)S2)c1` (stereo unspecified), the inhibition was inactive: 6.06%.

As to `O=[N+]([O-])c1cc([N+](=O)[O-])c(CCN2CCOCC2)c([N+](=O)[O-])c1`, the inhibition was inactive: 4.42%.

With `CCN(N=Nc1nonc1N)c1nonc1N`, the inhibition was inactive: 20.3%.

In the case of `CC(=O)Nc1ccc([As](=O)(O)O)cc1`, the inhibition was inactive: 5.45%.

In the case of `O=C(O)c1ccccc1[As](=O)(O)O`, the inhibition is inactive: -11.7%.

As for `O=P(Nc1nc2ccc(Cl)cc2s1)(c1ccccc1)c1ccccc1`, the inhibition is inactive: -4.95%.

Take `Cc1cc(SC(NC(=O)c2ccc(F)cc2)C(Cl)(Cl)Cl)ncn1` (stereo unspecified): the inhibition was inactive: 6.13%.

For `CCOP(=O)(Nc1ccccc1)OCC`, the inhibition was inactive: -15.3%.

Regarding `CN(C(=O)Cc1ccc(Cl)c(Cl)c1)[C@H]1CCCC[C@@H]1N1CCCC1`, the inhibition is inactive: 6.35%.

Take `Cc1ccc(NP(=O)(Oc2ccccc2F)Oc2ccccc2F)nc1`: the inhibition is inactive: -2.95%.

For `COC(=O)c1cc2c(s1)N=C(c1ccccc1)N(C)P2(=O)N1CCOCC1` (stereo unspecified), the inhibition was inactive: 14.7%.

With `Cc1ccc(OP(=O)(Nc2ccccn2)Oc2ccc(C)cc2)cc1`, the inhibition is inactive: 9.06%.

Turning to `CC(=O)NC(SC(=S)N(CC(C)C)CC(C)C)C(Cl)(Cl)Cl` (stereo unspecified), the inhibition is inactive: -71.5%.

`O=C(OC1CN2CCC1CC2)c1ccccc1` (stereo unspecified): the inhibition was inactive: -8.68%.

As to `CCC(=O)N1C2C3N(C(=O)CC)C1C1N(C(=O)CC)C(C(N1C(=O)CC)N3C(=O)CC)N2C(=O)CC`, the inhibition is inactive: -10.4%.

`CC(NC(=O)COC(=O)C(O)(c1ccccc1)c1ccccc1)c1ccccc1` (stereo unspecified): the inhibition is inactive: -2.25%.

Take `Cc1ccccc1OP(=O)(Nc1ccccn1)Oc1ccccc1C`: the inhibition was inactive: 1.2%.

Take `CN(C)C(=O)Oc1noc2ccccc12`: the inhibition is inactive: 5.18%.

For the compound `O=C(NC1CCS(=O)(=O)C1)NP(=S)(Oc1ccccc1)Oc1ccccc1` (stereo unspecified), the inhibition was inactive: 17.6%.

For the compound `CCNC(=S)/N=C(\N)N[N+](=O)[O-]`, the inhibition was inactive: 12.3%.

As for `c1ccc(-c2nn[nH]n2)c(-c2nn[nH]n2)c1`, the inhibition is inactive: -5.03%.

On to `CCOC(=O)NC(Sc1ccccc1)C(Cl)(Cl)Cl` (stereo unspecified), for which the inhibition was inactive: 0.442%.

Regarding `Cc1ccc(NP(=O)(Oc2cccc(C)c2)Oc2cccc(C)c2)nc1`, the inhibition is inactive: -10.9%.

For `CC(=O)c1ccc(N2CC2c2ccncc2)cc1` (stereo unspecified), the inhibition was inactive: 9.26%.

In the case of `Cc1ccccc1CN(C)C(=O)COC(=O)C(O)(c1ccccc1)c1ccccc1`, the inhibition was inactive: 15%.

Consider `C[C@H]1OP(=O)(Oc2ccccc2)C[C@@H]2O[C@@H]21` (stereo partly specified), for which the inhibition is inactive: 9.17%.

For `C[C@@H]1C=CCP(=O)(Oc2ccccc2)O1` (stereo partly specified), the inhibition is inactive: 11.2%.

On to `CC(=O)Nc1ccc([As](=O)(O)O)c(O)c1`, for which the inhibition was inactive: 2.53%.

On to `CC(=O)Nc1ccc(Oc2c([N+](=O)[O-])cc([N+](=O)[O-])cc2[N+](=O)[O-])cc1`, for which the inhibition was inactive: 15%.

Regarding `O=P1(Nc2nc3ccc(Cl)cc3s2)COc2ccccc2O1` (stereo unspecified), the inhibition was inactive: 1.63%.

As for `CCOc1ccc(C2=NCC(CBr)S2)cc1` (stereo unspecified), the inhibition is inactive: 8.95%.

For the compound `CC(C)(C)C(=O)NC(Sc1ccccc1)C(Cl)(Cl)Cl` (stereo unspecified), the inhibition was inactive: 7.58%.

Take `O=P(Nc1nccs1)(c1ccccc1)c1ccccc1`: the inhibition was inactive: -3.43%.

For `CC(C)C(=O)NC(Sc1ccccc1)C(Cl)(Cl)Cl` (stereo unspecified), the inhibition was inactive: -10.5%.

On to `c1nnnn1CCn1cnnn1`, for which the inhibition is inactive: -20.8%.

For the compound `O=[N+]([O-])c1ncn(CCn2cnc([N+](=O)[O-])n2)n1`, the inhibition was inactive: 17.4%.

`O=[As](O)(c1ccccc1)c1ccc(O)cc1`: the inhibition was inactive: 15.4%.

Consider `C(Cc1nn[nH]n1)Cc1nn[nH]n1`, for which the inhibition was inactive: 19.4%.

Consider `Nc1ccc([As](=O)(O)c2ccc([N+](=O)[O-])cc2)cc1`, for which the inhibition is inactive: -4.43%.

With `O=C(OC1CN2CCC1CC2)c1cccc(Cl)c1` (stereo unspecified), the inhibition is inactive: 17.9%.

Consider `CN(C)C1(CNC(=O)c2ccc(Cl)c(S(N)(=O)=O)c2)CCCCC1`, for which the inhibition is inactive: 16.1%.

Take `O=P(Nc1ccccn1)(c1ccc(Br)cc1)c1ccc(Br)cc1`: the inhibition is inactive: 18.2%.

As to `O=P(Nc1nc2ccccc2s1)(c1ccccc1)c1ccccc1`, the inhibition is inactive: -1.69%.

`C[C@H]1OP(=O)(Oc2ccccc2)[C@H](O)[C@H](O)[C@H]1N=[N+]=[N-]` (stereo partly specified): the inhibition was inactive: 5.4%.
